The values that follow are results of earlier work, collected in publication PMC10642921.

The target of the data set is calcineurin (UniProt Q08209).

pKd: −log10 of the molar value.

By pKd is commonly meant the negative decadic logarithm of the Kd, by convention in mol/L. Consider calmodulin (from UniProt P0DP23), for which the pKd was 10.55.
